The assay concerns the target Mitogen-activated protein kinase 14 (Homo sapiens, UniProt Q16539). The assay is described as follows: Inhibitory activity against Mitogen-activated protein kinase p38.

Protein sequences, listed by entry. Tags and fused reporters are not part of them.
UniProt Q16539, whole entry: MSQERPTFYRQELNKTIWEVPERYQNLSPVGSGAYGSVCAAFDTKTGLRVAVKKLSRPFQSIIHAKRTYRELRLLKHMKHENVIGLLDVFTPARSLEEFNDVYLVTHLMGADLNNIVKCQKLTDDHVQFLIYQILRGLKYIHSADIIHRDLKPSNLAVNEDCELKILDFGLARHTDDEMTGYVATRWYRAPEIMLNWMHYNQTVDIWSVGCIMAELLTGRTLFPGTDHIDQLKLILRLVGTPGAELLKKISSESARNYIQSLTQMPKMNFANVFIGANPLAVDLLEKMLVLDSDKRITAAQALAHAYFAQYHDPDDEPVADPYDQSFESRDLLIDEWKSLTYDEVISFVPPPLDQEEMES

SMILES strings stand for the structures.

For one compound, IC50 results are on record in ChEMBL document CHEMBL1147482, “Novel and potent transforming growth factor beta type I receptor kinase domain inhibitor: 7-amino 4-(2-pyridin-2-yl-5,6-dihydro-4H-pyrrolo[1,2-b]pyrazol-3-yl)-quinolines” (Bioorg Med Chem Lett, 2004).

In general, IC50 refers to the concentration at which inhibition is half-maximal. Lower therefore signals inhibition by little substance.

With `c1ccc(-c2n[nH]cc2-c2ccnc3ccccc23)nc1`, the IC50 turned out to be 51 µM.
